# Ab-14 light chain CDR variants: yeast mating affinities

Reference: Engelhart et al. 2022, doi:10.1038/s41597-022-01779-4. File: FLAb, binding data.

Antigen: PDVDLGDISGINAS, a 14-residue peptide of the SARS-CoV-2 spike HR2 region.

Parent: Ab-14, a human scFv built as VH, the linker GGGGSGGGGSGGGGS, VL. Only the CDRs of the light chain vary.
VH: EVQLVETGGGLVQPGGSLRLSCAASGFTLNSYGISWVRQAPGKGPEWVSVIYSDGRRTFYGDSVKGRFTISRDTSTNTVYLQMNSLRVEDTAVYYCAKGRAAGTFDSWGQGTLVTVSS
VL: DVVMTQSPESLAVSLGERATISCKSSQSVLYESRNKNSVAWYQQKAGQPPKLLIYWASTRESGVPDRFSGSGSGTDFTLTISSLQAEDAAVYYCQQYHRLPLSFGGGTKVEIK

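The starting antibody came from a phage panning campaign against this peptide. Library AAYL50 holds single substitutions and randomly drawn double and triple substitutions in the CDRs. Affinity was read by AlphaSeq, a pooled yeast mating assay with surface-displayed partners. The frequency of each diploid, read from paired DNA barcodes, reflects how well the two displayed proteins bind. Each replicate has its own calibration line, from reference interactions of the BCL2 family. Mating was done three times.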

Substitutions are numbered in sequence along the VL above, starting at 1 (not Kabat). Values are log10 of the apparent Kd in nM; lower means stronger binding. Where no diploid with the target was found in that replicate, the entry reads "n.d.": below detection, most likely a poor binder, though not proof of it. For reference, the parent read 0.65 as the reference entry and 1.68 as a member of this library.

| # | changes | log10 Kd (nM) by replicate | signal with controls |
|---|---|---|---|
| 1 | S25L+K36R+A57Y | 2.21 / n.d. / n.d. | 0 of 9 |
| 2 | S33N+T59V | 0.98 / 1.18 / 1.06 | 3 of 9 (4.33) |
| 3 | Q27H+N37E+Q95Y | 3.41 / 2.78 / 5.28 | 0 of 9 |
| 4 | K36D+T59H+R99V | 0.43 / 0.72 / 0.64 | 0 of 9 |
| 5 | S25P+V29H+Q96I | n.d. / n.d. / n.d. | 1 of 9 (3.95) |
| 6 | Y31N+Q95N+Y97N | n.d. / n.d. / n.d. | 1 of 9 (2.86) |
| 7 | S28M+R60C+H98K | n.d. / n.d. / n.d. | 0 of 9 |
| 8 | S28M+N37W+T59P | n.d. / 4.23 / n.d. | 3 of 9 (3.92) |
| 9 | L30Q+S33M+K36D | 4.62 / 3.21 / 3.83 | 2 of 9 (2.74) |
| 10 | R34C+Q96V | 1.38 / 1.77 / 2.01 | 3 of 9 (4.30) |
| 11 | K24W+S33E+R99E | n.d. / n.d. / n.d. | 0 of 9 |
| 12 | N37H+R99S+L100G | 0.99 / 1.05 / 1.07 | 2 of 9 (4.12) |
| 13 | S26C+Q95L+L102Y | n.d. / n.d. / n.d. | 0 of 9 |
| 14 | S25C+E32G+S58C | n.d. / n.d. / n.d. | 0 of 9 |
| 15 | L30T+A40N+Q96V | n.d. / n.d. / n.d. | 2 of 9 (4.99) |
| 16 | V29A+L30A+T59F | 1.44 / 1.45 / 1.62 | 2 of 9 (4.44) |
| 17 | E32W+N37L+Q95F | 5.77 / 3.49 / 3.97 | 4 of 9 (4.23) |
| 18 | S26E+L100N | 0.88 / 0.95 / 0.96 | 2 of 9 (4.46) |
| 19 | Y31V+Y97H+P101N | n.d. / 5.62 / 4.24 | 2 of 9 (4.41) |
| 20 | N35E+S38H+S103C | 3.23 / n.d. / 3.93 | 1 of 9 (2.68) |
| 21 | S25M+Y31Q+V39I | -0.15 / 0.23 / 0.01 | 1 of 9 (5.43) |
| 22 | L30H+R34N+S58F | 1.69 / 1.50 / 1.62 | 2 of 9 (5.88) |
| 23 | V29D+Y31P+A57I | 3.06 / 2.49 / 3.06 | 1 of 9 (4.61) |
| 24 | T59K+Q95V | n.d. / n.d. / n.d. | 0 of 9 |
| 25 | Y31M+E61F | 1.01 / 1.04 / 1.03 | 4 of 9 (4.45) |
| 26 | S25M+K36S | 0.16 / 0.45 / 0.33 | 4 of 9 (5.13) |
| 27 | S33F+N35C+L100M | 4.78 / 4.21 / n.d. | 2 of 9 (2.39) |
| 28 | Y31K+A57S+Q96C | 5.40 / 3.86 / 5.67 | 4 of 9 (4.25) |
| 29 | Q95W+L100A+S103D | n.d. / 4.89 / n.d. | 2 of 9 (3.58) |
| 30 | N37Q+S58C+L102Q | 4.01 / 4.44 / n.d. | 3 of 9 (3.73) |
| 31 | S28V+Q96Y+Y97I | n.d. / 2.90 / n.d. | 0 of 9 |
| 32 | S28W+A40W+Q95C | n.d. / n.d. / n.d. | 0 of 9 |
| 33 | S25C+S28F+L102C | n.d. / 4.59 / 3.59 | 1 of 9 (4.39) |
| 34 | S26D+Q96M+L100M | 2.01 / 1.88 / 2.38 | 5 of 9 (4.73) |
| 35 | S26T+N35V+A40E | n.d. / n.d. / n.d. | 1 of 9 (3.66) |
| 36 | N37A+R60V+Y97F | n.d. / n.d. / 2.98 | 0 of 9 |
| 37 | S26M+V29D+N37G | 1.58 / 1.54 / 1.84 | 2 of 9 (3.50) |
| 38 | S33Q+H98P | 2.19 / 2.18 / 2.10 | 1 of 9 (4.01) |
| 39 | Q27E+Y31W+R34Y | 3.54 / 3.19 / 3.37 | 2 of 9 (3.94) |
| 40 | L30W+Q96M+Y97D | 5.35 / 4.29 / n.d. | 4 of 9 (3.83) |
| 41 | V29K+N35K+W56H | n.d. / n.d. / n.d. | 0 of 9 |
| 42 | V29E+T59S+Q96A | 2.54 / 2.81 / 3.32 | 1 of 9 (4.35) |

As a blank, each scFv also met three strains without target: over library AAYL50, 18% of these pairings were detected, typically at 4.19 and seldom below 2.99. Also given: how often the same scFv was detected with the empty control strains, with their mean in brackets.